# From patent US20170065730A1, “COMPOSITION FOR IMAGING ATHEROSCLEROSIS AND METHOD FOR DIAGNOSING ATHEROSCLEROSIS BY USING SAME” (priority 2014, published 2017)
# System: aortic atherosclerotic lesion
# Settings: rabbit, in vivo
substance,measurement,value
fluorine-18 fluorodeoxyglucose [^18F-FDG],SUV Abdominal aorta,0.88 ± 0.88
same,SUV Bone marrow,0.78 ± 0.24
same,SUV Brain,1.92 ± 0.55
same,SUV Heart,1.58 ± 0.33
same,SUV IVC,0.96 ± 0.37
same,SUV Liver,1.80 ± 0.50
same,SUV Spleen,0.97 ± 0.41
same,SUV Thoracic aorta,0.96 ± 0.94
same,TBR of SUV Abdominal aorta/IVC,0.93 ± 0.27
same,TBR of SUV Abdominal aorta/brain,0.46 ± 0.13
same,TBR of SUV Abdominal aorta/heart,0.53 ± 0.10
same,TBR of SUV Thoracic aorta/IVC,0.93 ± 0.16
same,TBR of SUV Thoracic aorta/brain,0.46 ± 0.09
same,TBR of SUV Thoracic aorta/heart,0.53 ± 0.10
same,entry into the brain parenchyma through the blood-brain barrier,enters the brain parenchyma
same,uptake in liver and bone marrow tissues in PET/CT image,increased
same,usefulness in detecting atherosclerotic lesions in the brain tissue,not useful
